Data on 93 compounds can be found in PubChem BioAssay AID624464 (National Center for Advancing Translational Sciences (NCATS), 2012).

The chains behind the UniProt entries cited, without tags or fusion partners.
UniProt P14416, whole entry: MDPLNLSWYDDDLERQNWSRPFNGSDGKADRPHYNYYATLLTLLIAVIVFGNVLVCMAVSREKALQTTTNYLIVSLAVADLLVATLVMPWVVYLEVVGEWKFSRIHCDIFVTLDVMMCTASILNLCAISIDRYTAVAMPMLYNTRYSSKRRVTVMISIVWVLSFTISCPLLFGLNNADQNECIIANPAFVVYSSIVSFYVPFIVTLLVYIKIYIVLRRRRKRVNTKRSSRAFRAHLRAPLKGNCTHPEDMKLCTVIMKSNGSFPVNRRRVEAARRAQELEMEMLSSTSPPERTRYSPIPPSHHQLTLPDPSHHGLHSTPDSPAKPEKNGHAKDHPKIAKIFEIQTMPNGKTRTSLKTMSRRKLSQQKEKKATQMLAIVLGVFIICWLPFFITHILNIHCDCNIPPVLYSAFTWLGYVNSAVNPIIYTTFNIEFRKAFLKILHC

The list shows a part of the results, in another mix than the full data. Active and inactive are the calls of the source. Rule as the data show it: active = potentiation above about 50%; inconclusive = mostly about 30% to 49%; inactive = weaker than that.

The assay concerns the target D(2) dopamine receptor (Homo sapiens) (UniProt P14416). The assay is described as follows: Beta-Arrestin HTS for Positive Allosteric Modulators of the Human D2 Dopamine Receptor: Potentiators. The conditions noted are these: DiscoveRx D2 beta-arrestin cells, luminescence, 90 min; stronger effect = higher value; 100% = 57 uM dopamine signal. Summed up:
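D2 cells co-treated with compound plus 50 nM dopamine (EC20) for 90 min at 37 deg C to detect potentiation. Beta-arrestin recruitment was read as enzyme-fragment luminescence after 1 h at ambient temperature. Full response was set by 57 uM dopamine.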
As to `O=[N+]([O-])c1cc([N+](=O)[O-])c(Nc2cccnc2)c([N+](=O)[O-])c1`, the potentiation is inactive: -21%. Turning to `C[As](=O)(O)c1cccc(C(=O)O)c1`, the potentiation was inactive: -3.45%. In the case of `O=[As](O)(c1ccc(O)cc1)c1ccccc1O`, the potentiation was inactive: -5.61%.

As for `O=[N+]([O-])c1ccc(-c2cc([N+](=O)[O-])c(O)c([N+](=O)[O-])c2)cc1`, the potentiation is inactive: -16.7%.

Turning to `COc1cc(C(=O)NCC2(N3CCOCC3)CCCCC2)ccc1OCC(C)C`, the potentiation is inactive: -6.28%. Then `Cc1ccc(OP(=O)(Nc2ccc([N+](=O)[O-])cn2)Oc2ccc(C)cc2)cc1`, with inactive: -5.73%; and `CC(C)(C)c1ccc(OP(C)(=O)Nc2ccc(SC(F)(F)F)cc2)cc1` (stereo not drawn), with inactive: -22%; and `Cc1cccc(C)c1OP(C)(N)=O` (stereo not drawn), with inactive: -2.22%. To `O=[N+]([O-])c1ccc2c(c1)C=Nc1ccccc1O2` belongs inactive: 1.91%. To `Cc1ccc2nc3c(c(C)c2c1)CC(C(Cl)Cl)S3` (stereo not drawn) belongs inactive: 5.94%; to `CCOC(=O)c1ccc(NP(C)(=O)Oc2ccccc2)cc1` (stereo not drawn), inactive: 2.71%; to `ClCCSc1nnc(-c2cccnc2)o1`, inactive: -16.9%. Turning to `COc1ccccc1OP(C)(=O)Nc1ccc(C)cc1` (stereo not drawn), the potentiation is inactive: 2.17%. To `COC(=O)C1(C)COP(=O)(N2CCCCCC2)OC1` (stereo not drawn) belongs inactive: -7.22%. To `CC(C)c1ccc(OP(=O)(Nc2ccccn2)Oc2ccccc2F)cc1` (stereo not drawn) belongs inactive: 0.801%; to `Cc1ccc(NP(C)(=O)Oc2ccccc2)c(C)c1` (stereo not drawn), inactive: -13%.

As for `CC(C)NC(=O)NP(=O)(Oc1ccccc1)Oc1ccccc1`, the potentiation is inactive: -2.72%. Then `COc1ccccc1OP(C)(=O)Nc1cc(Cl)ccc1C` (stereo not drawn), with inactive: -18.4%; and `O=C(OC1CN2CCC1CC2)c1cccc2[nH]cnc12` (stereo not drawn), with inactive: -3.25%. To `CCN(CC)C(=S)SC(NC=O)C(Cl)(Cl)Cl` (stereo not drawn) belongs inactive: -12.1%. To `COc1ccc(OP(C)(=O)Nc2cccc(F)c2)cc1` (stereo not drawn) belongs inactive: -0.924%; to `O=[N+]([O-])c1cc([N+](=O)[O-])c(-c2ccn[nH]2)s1`, inactive: 3.59%; to `Cc1cc(C)cc(OP(C)(N)=O)c1` (stereo not drawn), inactive: 3.14%. In the case of `Cc1c2c(nc3ccccc13)SC(C(Cl)Cl)C2` (stereo not drawn), the potentiation was inactive: -9.89%. To `O=C(OC1CN2CCC1CC2)C12CC3CC(CC(C3)C1)C2` (stereo not drawn) belongs inactive: -19.9%; to `CCN(CC)CCCOC(=O)C(O)(c1ccccc1)c1ccccc1`, inactive: -11.4%.

Take `Cc1cc(=O)[nH]c(N[N+](=O)[O-])n1`: the potentiation was inactive: -2.43%. Consider `O=P1(N(CCCl)CCCl)OCCCN1CCCl` (stereo not drawn), for which the potentiation was inactive: -9.87%. In the case of `O=P1(N(CCCl)CCCl)Nc2ccccc2N1`, the potentiation was inactive: -3.8%. Then `COc1ccc2nc(NP(=O)(c3ccccc3)c3ccccc3)sc2c1`, with inactive: 1.25%; and `COc1cc(I)ccc1[As](=O)(O)O`, with inactive: -1.4%. As for `COc1ccc(N/C(=N/P(=O)(N2CCOCC2)N2CCOCC2)N2CCOCC2)cc1`, the potentiation is inactive: -0.901%.

For the compound `COP1(=S)c2c(C)nn(CCC#N)c2N=C(c2ccc(F)cc2)N1C` (stereo not drawn), the potentiation was inactive: -5.77%. To `CP(=O)(Nc1ccc(SC(F)(F)F)cc1)Oc1ccc(Cl)cc1` (stereo not drawn) belongs inactive: -9.21%; to `Cc1cccc(C)c1OP(C)(=O)Nc1ccc(SC(F)(F)F)cc1` (stereo not drawn), inactive: -19%.

As for `COC(=O)C1(C)COP(=O)(N2CCCC2)OC1` (stereo not drawn), the potentiation was inactive: -10.2%. In the case of `CP(=O)(Oc1ccccc1)OC(c1ccccc1)C(F)(F)F` (stereo not drawn), the potentiation is inactive: -8.62%. Then `CP(=O)(NC(=O)Nc1ccccc1)Oc1ccccc1` (stereo not drawn), with inactive: 5.13%; and `O=C(COc1ccccc1)OC1CN2CCC1CC2` (stereo not drawn), with inactive: -8.53%; and `CCc1ccc(OP(C)(=O)N2CCN(c3ccc([N+](=O)[O-])cc3)CC2)cc1` (stereo not drawn), with inactive: -7.15%. Then `O=C(Nc1ccncc1[N+](=O)[O-])c1ccc([N+](=O)[O-])cc1[N+](=O)[O-]`, with inactive: 4.42%; and `Cc1cc(C)cc(OP(C)(=O)Nc2ccc(SC(F)(F)F)cc2)c1` (stereo not drawn), with inactive: -2.48%; and `O=C(OC1CN2CCC1CC2)c1cccc([N+](=O)[O-])c1` (stereo not drawn), with inactive: -6.28%.

With `CCOP(C)(=S)SCC(=O)NC(C)C(=O)O` (stereo not drawn), the potentiation was inactive: -18.3%.

As to `CSc1ccc(Nc2c([N+](=O)[O-])cc([N+](=O)[O-])cc2[N+](=O)[O-])cc1`, the potentiation was inactive: -24.8%. Then `O=[N+]([O-])c1cc([N+](=O)[O-])c(O)c([N+](=O)[O-])c1.c1ccc(Oc2ccncc2)cc1`, with inactive: -23.9%; and `CCOC(=O)c1ccc(NC(=O)C(C)(CCl)SC)cc1` (stereo not drawn), with inactive: -7%.

In the case of `CCOC(=O)c1ccc(NP(C)(=O)Oc2ccc(OC)cc2)cc1` (stereo not drawn), the potentiation is inactive: 3.39%. To `CCC(C)N(CC(C)C)C(=S)SC(NC(C)=O)C(Cl)(Cl)Cl` (stereo not drawn) belongs inactive: -23%; to `CP(=O)(Nc1ccccn1)Oc1ccc(Cl)cc1` (stereo not drawn), inactive: -18.2%; to `O=C(O)C(=O)c1ccc(N(CCCl)CCCl)cc1.c1ccc(Nc2ccccc2)cc1`, inactive: -7.52%. Regarding `CCOC(=O)Nc1ccc([As](=O)(O)O)c(O)c1`, the potentiation is inactive: 2.79%.

In the case of `CC1CCNP(=O)(N(CCCl)CCCl)O1` (stereo not drawn), the potentiation was inactive: -15.6%. To `COP(=O)(OC)N1CC1c1ccccc1` (stereo not drawn) belongs inactive: -8.18%; to `CCCCOc1ccc(C(=O)NCC2(N3CCCCC3)CCCCC2)cc1OC`, inactive: -10.4%; to `Cc1cc(SC(NC(=O)c2ccccc2)C(Cl)(Cl)Cl)nc(C(C)C)n1` (stereo not drawn), inactive: -11.5%. For `CP(=S)(Nn1cnnc1)Oc1ccccc1` (stereo not drawn), the potentiation was inactive: -3.45%.

`CCOC(=O)Nc1cccc([As](=O)(O)O)c1`: the potentiation is inactive: -3.83%. Regarding `Cc1cc(SC(NC=O)C(Cl)(Cl)Cl)ncn1` (stereo not drawn), the potentiation was inactive: -6.42%. Then `O=P(Nc1ccccn1)(c1cccc2ccccc12)c1cccc2ccccc12`, with inactive: -1.99%; and `COc1ccccc1OP(C)(=O)Nc1ccccc1` (stereo not drawn), with inactive: -0.0722%; and `CP(=O)(Nc1ccccc1Br)Oc1ccccc1` (stereo not drawn), with inactive: -2.2%. Then `O=[N+]([O-])c1ccc(Nc2ccc(Oc3ccc([N+](=O)[O-])cc3[N+](=O)[O-])cc2)c([N+](=O)[O-])c1`, with inactive: -13.2%; and `Cc1nn(-c2ccccc2)c2c1P(=O)(N1CCOCC1)N(C)C(c1ccccc1)=N2` (stereo not drawn), with inactive: 7.69%; and `Cc1ccc(C(=O)OC2CN3CCC2CC3)cc1` (stereo not drawn), with inactive: 12.8%.

For the compound `CC1CCC(C(C)C)C(OP(=O)(Nc2ccccn2)c2ccccc2)C1` (stereo not drawn), the potentiation was inactive: -13.3%. Then `COc1cc(C2NCCC3(OCCO3)C2(C)C)cc(OC)c1OC.O=[N+]([O-])c1cc([N+](=O)[O-])c(O)c([N+](=O)[O-])c1` (stereo not drawn), with inactive: -20.9%; and `CC1=C2N=C(C=C3N=C(C(C)=C4[N-][C@@](C)([C@@H]5N=C1[C@](C)(CCC(=O)NC[C@@H](C)OP(=O)([O-])O[C@H]1[C@@H](O)[C@@H](n6cnc7cc(C)c(C)cc76)O[C@@H]1CO)[C@H]5CC(N)=O)[C@@](C)(CC(N)=O)[C@@H]4CCC(N)=O)[C@@](C)(CC(N)=O)[C@@H]3CCC(N)=O)C(C)(C)[C@@H]2CCC(N)=O.[C-]#N.[Co+3]`, with inactive: -9.78%. In the case of `CN(C)C1(CNC(=O)c2ccc(S(C)(=O)=O)cc2)CCCCC1`, the potentiation is inactive: -5.51%. For the compound `O=[N+]([O-])c1cc([N+](=O)[O-])c(Nc2nnnn2CCO)c([N+](=O)[O-])c1`, the potentiation is inactive: -26.3%. As for `O=C(/C=C/c1ccccc1)OC1CN2CCC1CC2` (stereo not drawn), the potentiation was inactive: 1.09%. To `CCCC1OP(=O)(Nc2ccccc2)OCC1CC` (stereo not drawn) belongs inactive: 0.0372%; to `CN1CCCCC1COC(=O)C1(O)c2ccccc2CCc2ccccc21` (stereo not drawn), inactive: -19.1%; to `COc1ccccc1OP(C)(=O)Nc1c(C)cccc1C` (stereo not drawn), inactive: -2.41%. To `O=P1(Nc2ncccn2)COc2ccccc2OC1` belongs inactive: -3.95%. For `CCCOc1ccc(NP(C)(=O)Oc2ccc(Cl)cc2)cc1` (stereo not drawn), the potentiation is inactive: -16.6%. Take `Nc1cccc([As](=O)(O)c2ccccc2)c1`: the potentiation is inactive: -9.29%. To `CP(=O)(Nc1ccc(SC(F)(F)F)cc1)Oc1ccccc1` (stereo not drawn) belongs inactive: -5.02%. Then `O=[As](O)(c1cccs1)c1cccs1`, with inactive: 0.97%. Then `Cc1ccc(OCC(=O)OC2CN3CCC2CC3)cc1` (stereo not drawn), with inactive: -23.5%; and `NS(=O)(=O)c1cccc(NC(=O)COC(=O)C(O)(c2ccccc2)c2ccccc2)c1`, with inactive: -6.51%; and `O=P1(Nc2ccc(Br)cn2)COc2ccccc2OC1`, with inactive: 6.21%.

With `CCC1=CC2Cc3nc4ccc(Cl)cc4c(N)c3C(C1)C2` (stereo not drawn), the potentiation was inactive: -9.02%. Then `O=P1(Nc2ccccn2)COc2ccccc2OC1`, with inactive: -4.13%; and `O=C(O)C(O)c1ccc(N(CCCl)CCCl)cc1.c1ccncc1` (stereo not drawn), with inactive: -7.82%.

Turning to `O=[N+]([O-])c1cc([N+](=O)[O-])c(-n2nnc3ccccc32)c([N+](=O)[O-])c1`, the potentiation is inactive: -14.7%. Take `Nc1ccc(CCCCOc2ccccc2)cc1.O=[N+]([O-])c1cc([N+](=O)[O-])c(O)c([N+](=O)[O-])c1`: the potentiation is inactive: -19.5%. Then `CCOP(=O)(NC(=NC(C)c1ccccc1)NC(C)c1ccccc1)OCC` (stereo not drawn), with inactive: -9.85%; and `CCOP(=O)(Nc1ccc(C)cn1)OCC`, with inactive: -0.718%. Then `CN(CCCl)Cc1cc(Cl)c(NC2=NCCN2)c(Cl)c1`, with inactive: -11.7%; and `Clc1n[nH]nc1-c1nn[nH][15n]1`, with inactive: -6.93%. Then `O=P1(N(CCCl)CCCl)NCCC(C(F)(F)F)O1` (stereo not drawn), with inactive: -5.31%. Regarding `CN(Cc1cccnc1)C(=O)COc1ccc(Cl)c(Cl)c1.O=[N+]([O-])c1cc([N+](=O)[O-])c(O)c([N+](=O)[O-])c1`, the potentiation was inactive: -20.5%.
